Read-outs that look alike come from different tables or passages of the source.
Experiments:
hERG K+ channels [1] = molecular target: T1, hERG K+ channels (Homo sapiens, UniProt Q12809); test: cell-based
hERG K+ channels [2] = molecular target: T1, hERG K+ channels; test: cell-based; remark: listed apart in the source

Sequences of proteins named here, by UniProt entry; tags and fusion partners are left off. A change or cut given only in a name is not applied to a line headed by its entry.
UniProt Q12809: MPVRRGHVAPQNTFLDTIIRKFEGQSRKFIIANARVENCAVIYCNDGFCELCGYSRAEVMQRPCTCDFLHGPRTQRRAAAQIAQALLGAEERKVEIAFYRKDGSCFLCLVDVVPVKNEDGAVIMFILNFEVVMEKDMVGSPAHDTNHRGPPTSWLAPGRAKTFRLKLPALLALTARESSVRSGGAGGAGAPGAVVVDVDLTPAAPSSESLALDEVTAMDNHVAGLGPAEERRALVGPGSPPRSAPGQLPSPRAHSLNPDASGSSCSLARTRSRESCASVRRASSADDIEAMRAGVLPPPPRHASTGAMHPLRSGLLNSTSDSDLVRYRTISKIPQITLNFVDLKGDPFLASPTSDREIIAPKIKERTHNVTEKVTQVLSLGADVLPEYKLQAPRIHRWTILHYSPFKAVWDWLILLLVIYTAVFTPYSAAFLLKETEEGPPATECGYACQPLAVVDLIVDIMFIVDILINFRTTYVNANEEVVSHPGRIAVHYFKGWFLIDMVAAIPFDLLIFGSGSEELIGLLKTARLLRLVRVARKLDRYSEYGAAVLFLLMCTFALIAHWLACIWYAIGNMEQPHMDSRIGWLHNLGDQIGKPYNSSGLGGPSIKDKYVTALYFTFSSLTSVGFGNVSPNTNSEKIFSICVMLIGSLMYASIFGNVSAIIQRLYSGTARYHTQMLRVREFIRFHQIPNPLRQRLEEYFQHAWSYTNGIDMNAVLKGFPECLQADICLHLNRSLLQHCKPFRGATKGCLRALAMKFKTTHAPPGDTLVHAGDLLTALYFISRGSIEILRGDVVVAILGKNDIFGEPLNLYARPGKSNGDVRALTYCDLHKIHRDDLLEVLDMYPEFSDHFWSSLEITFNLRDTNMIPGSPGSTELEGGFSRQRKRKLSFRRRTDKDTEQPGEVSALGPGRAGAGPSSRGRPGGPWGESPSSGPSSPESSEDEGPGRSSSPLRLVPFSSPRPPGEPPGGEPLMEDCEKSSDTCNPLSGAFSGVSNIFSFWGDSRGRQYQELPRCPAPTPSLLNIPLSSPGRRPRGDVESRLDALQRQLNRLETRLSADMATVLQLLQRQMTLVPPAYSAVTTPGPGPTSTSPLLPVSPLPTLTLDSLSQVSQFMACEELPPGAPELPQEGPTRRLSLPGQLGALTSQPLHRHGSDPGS

For `CC(C)COCC(CN(Cc1ccccc1)c1ccccc1)N1CCCC1` (centres unmarked) [Bepridil], which IC50 (hERG K+ channels [1]) is on record?
Its IC50 is 270 nM.

And the IC50 (hERG K+ channels [2])?
Its IC50 is 65 ± 12 nM.
